Assay results reported in patent US20240280594A1, “MULTIWELL PLATE LIPOPHILICITY ASSAY” (Hoffmann-La Roche Inc., priority 2021, published 2024).

Test: CAMDIS Filter Bottom Plate (CAMDIS FBP) octanol/buffer log D
Settings: pH 7.4

Progesterone
CAMDIS FBP LogD: 3.62
